Laboratory results reported in patent US20200206299A1, “INHIBITORS OF BETA-ARRESTIN-NEUROKININ 1 RECEPTOR INTERACTIONS FOR THE TREATMENT OF PAIN” (priority 2016, published 2020).

Sequences of proteins named here, by UniProt entry; tags and fusion partners are left off. A change or cut given only in a name is not applied to a line headed by its entry. Residues count along the entry.
UniProt P14600, 1-311 limits assumed: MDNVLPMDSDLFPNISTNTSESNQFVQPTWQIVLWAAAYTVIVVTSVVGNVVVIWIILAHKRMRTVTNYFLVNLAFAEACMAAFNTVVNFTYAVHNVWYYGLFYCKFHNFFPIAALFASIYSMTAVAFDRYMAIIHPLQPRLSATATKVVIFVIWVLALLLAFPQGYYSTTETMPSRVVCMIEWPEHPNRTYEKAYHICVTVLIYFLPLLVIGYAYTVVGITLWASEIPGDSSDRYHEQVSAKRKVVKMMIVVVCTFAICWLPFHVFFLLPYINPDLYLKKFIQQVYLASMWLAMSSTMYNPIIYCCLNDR

Target: T1, NK1Rδ312 (Rattus norvegicus, UniProt P14600)
T1 construct: A deletion mutant NK1Rδ312 lacks the C-terminus and corresponds to a naturally occurring NK1R variant; expressed in transfected cells; host or cells: HEK293
Assay: FRET biosensors of compartmentalized ERK signaling (CytoEKAR, NucEKAR) in HEK-NK1Rδ312
Assay type: cell-based
Conditions: HEK-NK1Rδ312 cells, SP challenge
From the text: BRET probes NK1R-RLuc8, KRas-Venus, Rab5a-Venus, βarr1-YFP, βarr2-YFP have been described (Kocan, M. et al., Frontiers in endocrinology 2010, 1, 12; Lan, T. H. et al., Traffic 2012, 13, 1450-1456). CytoEKAR and NucEKAR were from Addgene (plasmids 18680, 18681 respectively). Full length and truncated δ312 rat HA-NK1R have been described (Dery, O. et al., American journal of physiology. Cell physiology 2001, 280, C1097-1106). RLuc8 fusions of these constructs were generated by removal of the stop codon by PCR and subcloning into a pcDNA3.1-RLuc8 vector.
HEK293 cells were transfected with 55 ng/well rat NK1R with N-terminal HA.11 epitope tag (HA-NK1R) or CLR plus RAMP1 and 40 ng/well FRET biosensors. FRET was assessed 48 h after transfection, following serum restriction (0.5% FBS overnight). […] FRET was assessed 72 h after transfection, following serum restriction (0.5% FBS overnight). Cells were equilibrated in HBSS at 37° C. and FRET was analyzed using a GE Healthcare INCell 2000 Analyzer. For GFP/RFP emission ratio analysis, cells were sequentially excited using a FITC filter (490/20) with emission measured using dsRed (605/52) and FITC (525/36) filters, and a polychroic optimized for the FITC/dsRed filter pair (Quad4). […] Data were analyzed as described and expressed as emission ratios relative to baseline for each cell (F/F0). […]

## SP: substance P, agonist of the neurokinin 1 receptor
  cytosolic ERK activation (FRET): stimulated
  nuclear ERK activation (FRET): not
